Experiment: Implantation of capsule on the sclera of rabbit's eye (fluorescence of hydatoid, fundus camera, tissue)
Type: in vivo
Details: 3 days after implantation
Experimental: A capsule (the collagen particle concentration of its porous PEG sheet: 500 mg/ml) packed with a PEG pellet of FA was implanted on the sclera of the eye of rabbits. One eye of each rabbit was used as a non-implantation control. The conjunctiva was incised 5 mm and the capsule was implanted therethrough into 2 to 15 mm of the corneal limbus. The capsule was fixed by suture. The conjunctiva was finally sutured to terminate the implantation. The hydatoid (100 μl) was collected every other week and the fluorescence intensity thereof was measured using a fluorescence plate reader. Using a fluorescence camera, the fluorochrome in the device implanted on the sclera and the distribution of the pigment slowly released were photographed. […] In FIG. 22, the fluorescences of the cell nucleus (blue fluorescence) and the model drug (green fluorescence) are observed. In FIG. 22, the mark * represents the position in which the PEG capsule was present. […] When the drug passes through RP, the drug is fed to RE. Because RP has a high barrier function, the pigment stops here and is concentrated.

**Q.** For FITC-Dextran 40 kDa [FD40], which tissue fluorescence distribution is on record?
**A.** The tissue fluorescence distribution was “strong fluorescence was observed in the sclera (SC) and the subretina (RP)”.

Source: US9005651B2, “Sustained drug delivery system” (Tohoku University, priority 2009, dated 2015)
